According to patent US20260250410A1, “ANTIBODY AND USE THEREOF” (SICHUAN HUIYU PHARMACEUTICAL CO., LTD., priority 2022, published 2026):

Test: SEC-HPLC purity of ADC molecules stored at 2 to 8° C.
Assay type: physicochemical
Method: The denaturation temperature (I'm value), aggregation temperature (Tagg value) and hydration kinetic diameter of ADC molecules were measured by UNcle multifunctional protein stability analysis system. Wherein, the Tm value was based on endogenous fluorescence spectroscopy method, and was fitted and calculated according to BCM algorithm, the Tagg value was measured by static light scattering (SLS) technology, and the hydration dynamics diameter was measured by dynamic light scattering (DLS) technology. • SEC purity detection: The purity of ADC molecules was analyzed by high performance liquid chromatography (HPLC). • Liquid chromatograph: Shimadzu LC-2030C Plus • chromatographic column: TSKgel G3000SWXL, 7.8×300 mm, 5 μm, TOSOH • mobile phase: 61 mmol/L Na2HPO4, 39 mmol/L NaH2PO4, 200 mmol/L NaCl, pH6.8 • flow rate: 1.0 ml/min • Detection wavelength: UV 220 nm • column temperature: 30° C. • Sample chamber temperature: 10° C. • Injection volume: 20 μg • Isocratic running time: 30 min
Quantitative analysis of the results was performed using peak area normalization method. If automatic integration failed due to reasons such as baseline drift, retention time variation, peak shape change or other reasons, integration parameters should be adjusted or the spectrum should be manually integrated. The main peak (MP) was the monomer peak, the peak with a retention time before the main peak was the aggregate peak (HMW), and the peak with a retention time after the main peak was the low molecular weight impurity peak (LMW).
In addition, 1CP-152-MMAE and CD27H10-MMAE were placed at 2 to 8° C. for different time (0 days, 3 days, 5 days) to investigate the change in purity of the two molecules.

B1: 1CP-152-MMAE: humanized antibody 1CP-152 linked to vc-MMAE, target DAR 4 (conjugate)
heavy: EVQLVESGGGLVQPGRSLRLSCTTSGLTFTHYHMSWVRQAPGKGLEWVAIIRNKAYGYTTDYSASVRGRFTISRDDSKSILYLQMNSLKTEDTAVYYCVREGGYGYDGTFAYWGQGTLVTVSSASTKGPSVFPLAPSSKSTSGGTAALGCLVKDYFPEPVTVSWNSGALTSGVHTFPAVLQSSGLYSLSSVVTVPSSSLGTQTYICNVNHKPSNTKVDKKV[left out - human IgG1 Fc]
light: DIQMTQSPSSLSASVGDRVTITCRASESVDNYGISFMNWFQQKPGQAPKLLIYAASNQGSGVPSRFSGSGSGTDFTLTISSMQPEDFATYYCQQSKEVPRTFGGGTKVEIKRTVAAPSVFIFPPSDEQLKSGTASVVCLLNNFYPREAKVQWKVDNALQSGNSQESVTEQDSKDSTYSLSSTLTLSKADYEKHKVYACEVTHQGLSSPVTKSFNRGEC
HMW D 3 (SEC aggregate peak, 2 to 8° C., 3 days): 1.9
HMW D 5 (SEC aggregate peak, 2 to 8° C., 5 days): 1.9
LMW D 5 (SEC low molecular weight peak, 2 to 8° C., 5 days): 0.8
decrease of purity after leaving at 2-8° C. for 5 days (SEC purity, D 5 vs D 0): did not change
